Inhibition data for five compounds are collected here from PubChem BioAssay AID1347418 (Sanford-Burnham Center for Chemical Genomics, 2020).

Protein sequences, listed by entry. Tags and fused reporters are not part of them. Lines headed by an entry give the natural chain unless they say otherwise; changes in a name come on top.
UniProt O00391: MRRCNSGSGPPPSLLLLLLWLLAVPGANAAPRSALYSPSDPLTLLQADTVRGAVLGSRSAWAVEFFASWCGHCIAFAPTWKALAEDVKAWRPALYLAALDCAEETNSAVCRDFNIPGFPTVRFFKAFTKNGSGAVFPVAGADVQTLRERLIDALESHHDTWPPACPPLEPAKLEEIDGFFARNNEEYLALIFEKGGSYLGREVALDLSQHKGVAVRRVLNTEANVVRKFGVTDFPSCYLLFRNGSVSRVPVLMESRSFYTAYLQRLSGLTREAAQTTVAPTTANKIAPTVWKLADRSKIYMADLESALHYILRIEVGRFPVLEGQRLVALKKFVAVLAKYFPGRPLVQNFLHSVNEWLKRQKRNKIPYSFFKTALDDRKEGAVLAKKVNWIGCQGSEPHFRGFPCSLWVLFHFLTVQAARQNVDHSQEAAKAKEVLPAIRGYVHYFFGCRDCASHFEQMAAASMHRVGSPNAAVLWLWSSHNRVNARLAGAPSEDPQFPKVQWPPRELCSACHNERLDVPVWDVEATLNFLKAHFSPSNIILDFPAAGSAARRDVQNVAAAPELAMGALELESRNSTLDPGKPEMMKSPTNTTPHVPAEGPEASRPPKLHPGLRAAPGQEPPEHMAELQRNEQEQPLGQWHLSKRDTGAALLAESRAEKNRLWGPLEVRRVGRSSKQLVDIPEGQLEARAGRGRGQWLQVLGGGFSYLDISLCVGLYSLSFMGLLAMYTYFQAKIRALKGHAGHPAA

Molecules are shown by their SMILES. The entries are a selection whose mix differs from that of the whole data set. Active and inactive are the calls of the source.

The target in the assay is Sulfhydryl oxidase 1 (Homo sapiens) (UniProt O00391). The assay can be described thus: QSOX1 enzyme inhibitors, primary screen, biochemical, ROS-Glo H2O2 luminescence, HTS (AID 1347418). The settings on record: recombinant QSOX1, ROS-Glo H2O2 luminescence; at 12.5 µM; stronger effect = higher value; active = any value above zero.
As to `CN(C(=O)Cc1ccc(Cl)c(Cl)c1)[C@H]1CCCC[C@@H]1N1CCCC1`, the inhibition was active: 1.1%.
On to `CN(C(=O)Cc1ccc(Cl)c(Cl)c1)[C@@H]1CCCC[C@@H]1N1CCCC1`, for which the inhibition is inactive: -3.2%.
To `CN(C(=O)Cc1ccccc1)[C@@H]1CC[C@]2(CCCO2)C[C@H]1N1CCCC1` belongs inactive: -0.6%.
To `CN(C(=O)Cc1ccc(Cl)c(Cl)c1)[C@@H]1CC[C@]2(CCCO2)C[C@H]1N1CCCC1` belongs active: 1%; to `CN(CCCl)Cc1cc(Cl)c(NC2=NCCN2)c(Cl)c1`, inactive: -2.2%.
